System: MLLbcr rearrangements in K562/MLL cells
Assay: Fluorescence-based (EGFP reconstitution) recombination assay for MLLbcr rearrangements in K562/MLL cells after doxorubicin
Format: cell-based, human
Conditions: expression plasmid electroporated into K562/MLL; 2 μM doxorubicin 4 h; 72 h culture; vs empty vector
Description: Human K562/MLL cells, derived from K562 leukemia cells, with chromosomally integrated plasmid pHR-EGFP/3′ EGFP-MLLbcr.fwd (Ireno et al. Arch Toxicol. 2014, 88(5):1141-59) were cultured in RPMI1640 medium (Gibco/Thermo Fisher Scientific, Waltham, Massachusetts, USA) and HeLa/MLL cells also with chromosomally integrated plasmid pHR-EGFP/3′EGFP-MLLbcr.fwd (Gole et al. 2015, Oncogene 34: 3391-401), were cultured in DMEM medium (Gibco/Thermo Fisher Scientific, Waltham, Massachusetts, USA) at 37° C. and 5% CO2. Both media were supplemented with 10% foetal bovine serum (Biochrom, Berlin, Germany) and 1% L-glutamine (Gibco/Thermo Fisher Scientific). To split the cultures, the HeLa/MLL cells were treated with 1×PBS (Gibco/Thermo Fisher Scientific), washed, and detached from the surface with trypsin/EDTA (PAN Biotech, Aidenbach, Germany) before a portion was transferred to the new culture flask. The cells used were free of mycoplasma according to PCR assay. […]
Use of the fluorescence-based assay system for recombination measurements with K562/MLL or HeLa/MLL cells with chromosomally integrated plasmid pHR-EGFP/3′EGFP-MLLbcr.fwd is described in detail in Ireno et al. 2014 and Gole et al. 2015, respectively. […] This suspension was transferred to FACS tubes and the fluorescence of the cells was detected on the FACSCalibur™ (BD Biosciences, San Jose, California, USA). […]

Q: “wtKu80: human wild-type Ku80, full length, expressed from plasmid” was tested. Which “effect on MLLbcr rearrangements (recombination frequency), in words” value did it give?
A: The value was “no effect”.
